Results published in US5866397A, “Human protein tyrosine phosphatase OB protein” (Merck & Co., Inc., priority 1997, dated 1999).

Columns and labels:
[1] = tested on: mononucleated TRAP positive cells; experiment: Formation of mononucleated TRAP positive cells in the co-culture; format: cell-based, mouse; details: orthovanadate 10 μM or phenylarsine oxide 0.2 μM
bone cells / osteoblasts = details: literature (Lau et al.), cited from earlier work

In the case of `O=[As]c1ccccc1` (stereo not drawn), the “formation of mononucleated TRAP positive cells” value [1] was “produced mononucleated TRAP positive cells”.

For orthovanadate, the “synthesis of bone collagen” value (bone cells / osteoblasts) is given as “stimulation of cell proliferation and the synthesis of bone collagen” and the “synthesis of bone collagen” value (bone cells / osteoblasts; listed as vanadate) is given as “stimulated cell proliferation and the synthesis of bone collagen”.

Like-named read-outs stand apart in the source and are kept apart here.
